EWS-Fli block: blocks EWS/Fli oncoprotein-driven transcription | A673 NR0B1-luciferase reporter, viability-normalised | inhibition, % at 12.6 µM | hit rate 0.67% among 350,000;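 active = mean inhibition of at least 50% after viability correction, with every replicate also passing that limit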;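 also: firefly luciferase signal divided by Alamar Blue viability fluorescence both relative to DMSO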
miR122 inh: inhibitors of miR-122 in Huh7 cells; Huh7 miR-122 Renilla luciferase sensor, 48 h; neutral wells = 0, positive control = 100; activation (reporter increase), % at 12.5 µM; hit rate 0.3% among 340,000; AID 602342;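 active = mean replicate activation score at least 90 and every replicate individually at or above 90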;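 also: higher luciferase means less miR-122 activity so hits act as miR-122 inhibitors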
F508del corr: CFTR F508del correction in bronchial cells. CFBE cells, YFP halide quenching; stimulated with forskolin plus potentiator P3; % fluorescence drop versus neutral controls. activity (quench increase), % at 7.58 µM. hit rate 0.36% among 350,000;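 active = mean added fluorescence quench of at least 8% versus neutral control, with both replicates also reaching 8%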;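 also: cells transiently co-express mutant CFTR-F508del with the halide-sensitive YFP; corrector assay measuring rescue of mutant channel to the surface after 24 h compound exposure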
UUG fidelity: modulators of start codon recognition fidelity in yeast; S. cerevisiae UUG-firefly luciferase reporter, luminescence/redox ratio; activity score, % at 18.7 µM; hit rate 0.13% among 350,000; AID 602363;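 active = replicate mean at a twofold rise or more, about +100% in these data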;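 note: firefly luciferase made from a UUG start codon reports start codon fidelity; reporter light over untreated wells divided by growth signal over untreated wells; some hits fall short of that in this replicate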
PglD inh: PglD (C. jejuni) enzyme inhibition | hit rate 0.098% among 360,000 | purified PglD enzyme, DTNB colorimetric CoA detection | inhibition, % at 12.5 µM; in the data active = inhibition above about 16%, passing the limit was not always enough
LGR2 inh: inhibitors of bursicon-induced Drosophila LGR2 receptor cAMP signaling; hit rate 0.35% among 380,000; HEK293 LGR2, CRE-luciferase, bursicon-stimulated, 4 h; inhibition, % at 9.99 µM;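 active = drop in luminescence signal, shown as inhibition above about 50% in the replicate tests, limit read from the data, passing the limit was not always enough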;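 also: agonist challenge used bursicon conditioned medium at about half maximal strength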
Numbers without * were called inactive; / = no result given; [ ] = dose if it differs, or a comment. Compounds with a hit are over-represented: about 1.3% of the library has one in this group of screens.

Short forms – A = EWS-Fli block; B = miR122 inh; C = F508del corr; D = UUG fidelity; E = PglD inh; F = LGR2 inh
> COc1ccc(/C=C2/SC(=S)N(Cc3ccccc3)C2=O)cc1O
  A = -1	B = 1	C = 0	D = -8	E = 4	F = -34

> O=C1/C(=C\c2cc(Cl)c(O)c(Cl)c2)SC(=S)N1Cc1ccccc1
  A = 24	B = 0	C = 28*	D = -17	E = -10	F = 0

> COc1cc(C(=O)N/N=C/c2sccc2C)cc(OC)c1OC
  A = 55*	B = /	C = 2	D = /	E = /	F = 9

> CCOC(=O)c1c(NCc2ccc3c(c2)OCO3)c2ccccc2[nH]c1=O
  A = /	B = 8	C = /	D = -14	E = 3	F = /

> COc1ccc(OC)c2nc3c(C(=O)NCCN(C)C)cccc3nc12
  A = 45	B = -10	C = 7	D = /	E = /	F = 27

> CN(C)CCNC(=O)c1cccc2nc3cccc(F)c3nc12
  A = 56*	B = /	C = 9.2*	D = /	E = /	F = 37

> Oc1cc2c(cc1O)C(c1ccccc1)CNCC2 (configuration not stated)
  A = 6	B = -1	C = 9.5*	D = -13	E = 1	F = -7

> Cc1cc(OC(C)C(=O)NCCCn2ccnc2)c2c(C)c(C)c(=O)oc2c1 (configuration not stated)
  A = 7	B = -10	C = 2	D = 2	E = -7	F = 1

> C[C@@H]1CCCCO[C@H](CN(C)Cc2ccc3c(c2)OCO3)[C@@H](C)CN([C@@H](C)CO)C(=O)c2cc(NC(=O)Nc3ccc(C(F)(F)F)cc3)ccc2O1
  A = 69*	B = -26[16.7 µM]	C = -6	D = 0	E = -1	F = /

> C[C@@H]1CCCCO[C@H](CN(C)Cc2ccc3c(c2)OCO3)[C@H](C)CN([C@@H](C)CO)C(=O)c2cc(NC(=O)Nc3ccc(C(F)(F)F)cc3)ccc2O1
  A = 75*	B = -24[16.7 µM]	C = 0	D = 9	E = -2	F = 13

> C[C@H]1CCCCO[C@H](CN(C)Cc2ccc3c(c2)OCO3)[C@@H](C)CN([C@@H](C)CO)C(=O)c2cc(NC(=O)Nc3ccc(C(F)(F)F)cc3)ccc2O1
  A = 75*	B = -24[16.7 µM]	C = -2	D = -4	E = -2	F = -7

> C[C@H]1CCCCO[C@H](CN(C)Cc2ccc(C(F)(F)F)cc2)[C@@H](C)CN([C@@H](C)CO)C(=O)c2cc(NC(=O)Nc3ccc4c(c3)OCO4)ccc2O1
  A = 8	B = -1[16.7 µM]	C = 4	D = 13	E = 3	F = 8

> C[C@H](CO)N1C[C@H](C)[C@H](CN(C)Cc2ccc3c(c2)OCO3)OCCCC[C@H](C)Oc2ccc(NC(=O)Nc3ccc(C(F)(F)F)cc3)cc2C1=O
  A = 76*	B = -26[16.7 µM]	C = 2	D = 8	E = -2	F = 10

> C[C@@H]1CCCCO[C@@H](CN(C)Cc2ccc(C(F)(F)F)cc2)[C@H](C)CN([C@H](C)CO)C(=O)c2cc(NC(=O)Nc3ccc4c(c3)OCO4)ccc2O1
  A = 26	B = -9[16.7 µM]	C = 1	D = -2	E = 8	F = 23

> C[C@@H]1CCCCO[C@@H](CN(C)Cc2ccc3c(c2)OCO3)[C@@H](C)CN([C@H](C)CO)C(=O)c2cc(NC(=O)Nc3ccc(C(F)(F)F)cc3)ccc2O1
  A = -6	B = -1[16.7 µM]	C = -1	D = 10	E = 0	F = 6

Given with two lines to a compound: entries from further up.
Every second line gives: EWS-Fli block	miR122 inh	F508del corr	UUG fidelity	PglD inh	LGR2 inh
- Oc1cc2c(cc1O)C(c1ccccc1)CNCC2 (configuration not stated)
    6	-1	9.5*	-13	1	-7
- Cc1cc(OC(C)C(=O)NCCCn2ccnc2)c2c(C)c(C)c(=O)oc2c1 (configuration not stated)
    7	-10	2	2	-7	1
- C[C@@H]1CCCCO[C@H](CN(C)Cc2ccc3c(c2)OCO3)[C@@H](C)CN([C@@H](C)CO)C(=O)c2cc(NC(=O)Nc3ccc(C(F)(F)F)cc3)ccc2O1
    69*	-26[16.7 µM]	-6	0	-1	/

New compounds follow:
Short forms – A = EWS-Fli block; B = miR122 inh; C = F508del corr; D = UUG fidelity; E = PglD inh; F = LGR2 inh
> C[C@@H]1CN([C@@H](C)CO)C(=O)c2cc(NC(=O)Nc3ccc(C(F)(F)F)cc3)ccc2O[C@@H](C)CCCCO[C@H]1CN(C)Cc1ccc2c(c1)OCO2
  A = -2	B = -19[16.7 µM]	C = -3	D = 4	E = 2	F = 7

> O=C(COc1ccc(Cl)cc1)NNC(=O)c1ccc2c(=O)n3c(nc2c1)CCC3
  A = -2	B = /	C = 1	D = -7	E = 1	F = -5

> COc1ccc(NC(=O)c2ccc(=O)[nH]c2)cc1S(=O)(=O)N1CCCCC1
  A = -10	B = /	C = /	D = /	E = /	F = -10

> C[C@@H]1CN([C@H](C)CO)C(=O)c2cc(NC(=O)Nc3ccc(F)cc3)ccc2O[C@@H](C)CCCCO[C@H]1CN(C)Cc1ccc2c(c1)OCO2
  A = 68*	B = 4[16.7 µM]	C = -3	D = 14	E = -5	F = 13

> C[C@@H]1CN([C@H](C)CO)C(=O)c2cc(NC(=O)Nc3ccc(C(F)(F)F)cc3)ccc2O[C@@H](C)CCCCO[C@H]1CN(C)Cc1ccc2c(c1)OCO2
  A = 77*	B = -21[16.7 µM]	C = 1	D = -9	E = 2	F = 7

> C[C@@H]1CN([C@H](C)CO)C(=O)c2cc(NC(=O)Nc3ccc(F)cc3)ccc2O[C@@H](C)CCCCO[C@@H]1CN(C)Cc1ccc2c(c1)OCO2
  A = 21	B = -2[16.7 µM]	C = -3	D = 18	E = -3	F = 20

> Cc1ccc(CNc2ncnc(N)c2[N+](=O)[O-])cc1
  A = -19	B = /	C = -1	D = /	E = /	F = -29

> CC(C)NC(=O)Nc1cccc2c1O[C@H](CN(C)C(=O)Nc1ccc3c(c1)OCO3)[C@H](C)CN([C@@H](C)CO)C2=O
  A = -4	B = -7[16.7 µM]	C = 0	D = 1	E = 0	F = 1

> COCC#Cc1cnc2c(c1)C(=O)N([C@@H](C)CO)C[C@@H](C)[C@H](CN(C)Cc1ccc3c(c1)OCO3)O2
  A = -12	B = 8[16.7 µM]	C = -2	D = 4	E = -1	F = 14

> COc1ccc(C2c3cc(OC)c(OC)cc3CCN2C(=O)c2ccccc2Br)cc1OC (configuration not stated)
  A = 5	B = -1	C = 1	D = 11	E = 6	F = -2

> C[C@@H]1CN([C@H](C)CO)S(=O)(=O)c2ccc(C#Cc3ccccn3)cc2O[C@@H]1CN(C)Cc1ccccc1
  A = -12	B = 27[16.7 µM]	C = -3	D = -6	E = -1	F = 10

> Clc1cccc(-c2nc(-c3ccccn3)no2)c1
  A = /	B = 7	C = /	D = -79	E = -14	F = /

> Cc1ccc(-c2nc(-c3ccccn3)no2)cc1
  A = /	B = -3	C = /	D = -93	E = -1	F = /

> c1ccc(-c2nc(-c3ccccn3)no2)cc1
  A = /	B = -7	C = /	D = -62	E = -5	F = 87*

> c1ccc(-c2ccc(-c3nc(-c4ccccn4)no3)cc2)cc1
  A = 87*	B = 2	C = 2	D = -90	E = 0	F = 102*

Additional results:
Short forms – A = EWS-Fli block; B = miR122 inh; C = F508del corr; D = UUG fidelity; E = PglD inh; F = LGR2 inh
> CCCCOc1cc(NCc2ccccc2)c2ncn(C(C)C)c2c1
  A = 11	B = /	C = 2	D = -9	E = -5	F = 68*

> CCC(COC)Oc1cc(NCc2ccccc2)c2ncn(C(C)C)c2c1 (configuration not stated)
  A = 4	B = /	C = 6	D = -28	E = 2	F = 104*

> CCC(CO)Oc1cc(NCc2ccccc2)c2ncn(C(C)C)c2c1 (configuration not stated)
  A = 1	B = 2	C = 0	D = 7	E = -2	F = 10

> COCCCOc1cc(NCc2ccccc2)c2ncn(C(C)C)c2c1
  A = 10	B = /	C = 2	D = -3	E = 0	F = 17

> O=C(NCC[C@@H]1CC[C@H](NC(=O)c2cccnc2)[C@H](CO)O1)Nc1ccc(F)cc1
  A = -7	B = /	C = 0	D = 8	E = 3	F = 5

> CC(=O)c1cccc(NC(=O)C(C)N2CCc3ccccc3C2)c1 (configuration not stated)
  A = 4	B = 128*	C = 1	D = -11	E = -3	F = 5

> CC[n+]1c(/C=C/N(C)c2ccccc2)oc2ccc(F)cc21
  A = /	B = 335*	C = /	D = -10	E = 0	F = 18

> CC[n+]1c(/C=C/N(C)c2ccccc2)oc2ccccc21
  A = 7	B = -2	C = 0	D = -7	E = 4	F = 8

> Nc1cccc(S(=O)(=O)c2ccc(N)c(N)c2)c1
  A = 6	B = /	C = /	D = /	E = /	F = 32

> CC(=O)Nc1ccc(NC2=C(Cl)C(=O)c3ccccc3C2=O)cc1
  A = 47	B = /	C = /	D = /	E = /	F = 56*

> COc1ccccc1NC1=C(NC(C)=O)C(=O)c2ccccc2C1=O
  A = -3	B = /	C = 8.2*	D = /	E = /	F = 12
